This assay concerns the target Filamentous actin (F-actin) polymerised from non-muscle human actin (human) (UniProt P60709). Nature of the assay: co-sedimentation; F-actin with Tau 1:1, 30 min at room temperature; 5000 x g 15 min for bundles (PB), then 100,000 x g 1 h for single filaments (PF); supernatant, PF and PB on 4-20% gradient gel, bands quantified.

In turn, “Human Tau (2N4R), 441-residue full-length Tau (from UniProt P10636-8 1-441) (natural protein)” had a percent of Tau bound to single filaments of 8% and a percent of Tau found with actin bundles of 29%.

The values above are taken from paper PMC5719408, “Multivalent cross-linking of actin filaments and microtubules through the microtubule-associated protein Tau” (Nature Communications, 2017).
